{
  "source": "published antibiotic growth screens (doi:10.1038/s41589-023-01349-8)",
  "note": "The list shows a part of the results.",
  "data": [
    {"system": "A. baumannii ATCC 17978", "test": "relative growth (fraction of control); higher = less inhibition", "conditions": "50 µM", "values": [
      {"smiles": "C[C@@H]1CN([C@H](C)CO)S(=O)(=O)c2ccc(-c3ccc(C(=O)N(C)C)cc3)cc2O[C@H]1CN(C)C(=O)C1CCOCC1", "relative growth": 0.94},
      {"smiles": "C[C@H](O)[C@H](O)[C@@H](O)[C@@H](O)/C=N/NC(=O)c1cccc(C(=O)NO)c1", "relative growth": 0.869},
      {"smiles": "O=C(C1=C[C@@H](c2ccc3c(c2)OCO3)C[C@@H](OCCCCO)O1)N1CCN(Cc2ccc3c(c2)OCO3)CC1", "relative growth": 1.07},
      {"smiles": "OCCNC(=S)Nc1ccccc1", "relative growth": 1.04},
      {"smiles": "COc1ccc(C(=O)CC(=O)c2ccc(C(C)(C)C)cc2)cc1", "relative growth": 0.959},
      {"smiles": "CCN(CCO)CCCC(C)Nc1ccnc2cc(Cl)ccc12.O=S(=O)(O)O", "note": "(configuration not stated)", "relative growth": 1.1},
      {"smiles": "O=C(C[C@@H]1CC[C@H](NC(=O)CN2CCOCC2)[C@H](CO)O1)NC1CCC1", "relative growth": 0.919},
      {"smiles": "COC(=O)c1cc(=O)[nH]c2c1c(=O)n(C)c(=O)n2C", "relative growth": 1.14},
      {"smiles": "COC(=O)c1c[nH]c(=S)n1C", "relative growth": 0.906},
      {"smiles": "Nc1nc2c(ncn2COCCO)c(=O)[nH]1", "relative growth": 1.09},
      {"smiles": "O=C(O)c1ccc2nc(O)c(=O)[nH]c2c1", "relative growth": 0.998},
      {"smiles": "CC(C)CNC(=O)[C@@]1(C)c2ccccc2C(=O)N(Cc2cc(C(F)(F)F)cc(C(F)(F)F)c2)[C@H]1c1ccc(CO)cc1", "relative growth": 0.871},
      {"smiles": "O=C(C[C@@H]1CC[C@@H]2[C@H](COC[C@H](O)CN2S(=O)(=O)c2ccccc2F)O1)NCc1ccccc1Cl", "relative growth": 0.991},
      {"smiles": "CC(C)NC(=O)N(C)C[C@H]1Oc2cc(C#Cc3ccccn3)ccc2S(=O)(=O)N([C@H](C)CO)C[C@@H]1C", "relative growth": 1.01},
      {"smiles": "Cl.N=c1ccn2c(n1)O[C@@H]1[C@@H](O)[C@H](CO)O[C@@H]12", "relative growth": 1.01},
      {"smiles": "C=CC[C@@H](CC(=O)N[C@@H](CO)Cc1ccccc1)C(=O)N[C@@H](C)COC(=O)[C@@H](CC=C)CC(=O)OC(C)(C)C", "relative growth": 0.629},
      {"smiles": "O=c1cc(-c2ccccc2O)oc2cc(O)ccc12", "relative growth": 1.06},
      {"smiles": "COC(=O)C[C@H]1CC[C@@H]2[C@H](COC[C@H](O)CN2S(=O)(=O)c2cn(C)cn2)O1", "relative growth": 0.908},
      {"smiles": "OC[C@H]1O[C@@H](OCCc2ccc(O)cc2)[C@H](O)[C@@H](O)[C@@H]1O", "relative growth": 0.835},
      {"smiles": "O=S(=O)(NCCCN(C/C=C/c1ccc(F)cc1)C/C=C/c1ccc(F)cc1)c1cccc2cnccc12", "relative growth": 0.98},
      {"smiles": "CC(=O)O[C@H]1CC[C@]2(C)[C@H]3CC[C@@]4(C)[C@H](c5ccoc5)OC(=O)[C@H]5O[C@]54[C@]3(C)[C@H](OC(C)=O)C[C@H]2C1(C)C", "note": "[3beta-ACETOXYDEOXODIHYDROGEDUNIN]", "relative growth": 0.868},
      {"smiles": "O=C(O)CC[C@H]1CCC(=O)N1", "relative growth": 0.973},
      {"smiles": "CCOCC(O)COc1ccc(NC(=O)CC[S+](C)C)cc1.Cc1ccc(S(=O)(=O)[O-])cc1", "note": "(configuration not stated)", "relative growth": 1.02},
      {"smiles": "CC(=O)O[C@H]1CCC2(C)C3=C(CCC2C1(C)C)[C@]1(C)CCC(C(C)CCC=C(C)C)[C@@]1(C)CC3", "note": "(some centres not stated)", "relative growth": 0.903},
      {"smiles": "CCOC(=O)Cc1n[nH]c(=O)[nH]c1=O", "relative growth": 1.03},
      {"smiles": "CCCNC(=O)N1C[C@@H](O)COC[C@H]2O[C@@H](CC(=O)NCc3ccncn3)CC[C@@H]21", "relative growth": 0.965},
      {"smiles": "Cl.O=C(O)c1cn(-c2ccc(F)cc2)c2cc(N3CCNCC3)c(F)cc2c1=O", "relative growth": 0.137},
      {"smiles": "CSCC[C@H](N)C(=O)O", "relative growth": 0.863},
      {"smiles": "C[C@@H](O)[C@H](N)C(=O)O", "relative growth": 1.02},
      {"smiles": "CNCCC=C1c2ccccc2CCc2ccccc21.Cl", "relative growth": 0.91},
      {"smiles": "O=C(C[C@@H]1CC[C@H]2[C@@H](COC[C@@H](O)CN2C(=O)c2ccccc2F)O1)N1CCN(c2ccccc2)CC1", "relative growth": 1.06},
      {"smiles": "COc1ccc([C@@H](N)c2ccccc2)cc1", "relative growth": 0.866},
      {"smiles": "CC1C/C=C/C=C/C=C/C=C/C(O[C@@H]2O[C@H](C)[C@@H](O)[C@H](N)[C@@H]2O)CC2OC(O)(CC(O)CC3OC3/C=C/C(=O)O1)CC(O)C2C(=O)O", "note": "(some centres not stated)", "relative growth": 1.06},
      {"smiles": "C[C@@H](O)Cn1cnc2c1c(=O)n(C)c(=O)n2C", "relative growth": 0.955},
      {"smiles": "Cn1cnc(S(=O)(=O)N[C@@H]2CC[C@H](CC(=O)N3CCN(c4ccccc4)CC3)O[C@@H]2CO)c1", "relative growth": 1.06},
      {"smiles": "COc1cccc(S(=O)(=O)Nc2ccc3c(c2)[C@@H]2C[C@H](CC(=O)NCc4cccc(F)c4)O[C@@H](CO)[C@@H]2O3)c1", "relative growth": 0.916},
      {"smiles": "O=C(C[C@H]1CC[C@H]2[C@@H](COC[C@H](O)CN2S(=O)(=O)c2ccc(Cl)cc2)O1)N[C@@H]1CCN(Cc2ccccc2)C1", "relative growth": 1},
      {"smiles": "COc1ccccc1NC(=O)N(C)C[C@H]1Oc2cc(Br)ccc2S(=O)(=O)N([C@@H](C)CO)C[C@@H]1C", "relative growth": 0.971},
      {"smiles": "Cl.NCCCC(N)(C(=O)O)C(F)F.O", "note": "(configuration not stated)", "relative growth": 0.957},
      {"smiles": "Cc1cccc(S(=O)(=O)N2C[C@@H](O)COC[C@@H]3O[C@H](CC(=O)NCCCN4CCOCC4)CC[C@H]32)c1", "relative growth": 1.07},
      {"smiles": "Nc1nonc1C(=O)NCc1ccco1", "relative growth": 0.849},
      {"smiles": "Cc1c(Cl)cccc1Nc1ncccc1C(=O)O", "relative growth": 0.89},
      {"smiles": "O=C(N/N=C/c1ccc([N+](=O)[O-])o1)c1ccc(O)cc1", "relative growth": 1},
      {"smiles": "CCNC(=O)C[C@@H]1C=C[C@H](NC(=O)C2CC2)[C@@H](CO)O1", "relative growth": 0.97},
      {"smiles": "C[N+](C)(C)CCCC[C@@H]1NC(=O)[C@@H]2C[C@H](C(=O)NCc3ccc(F)cc3)[C@H](c3ccc(O)cc3)N2C1=O", "relative growth": 1.01},
      {"smiles": "C=CCOC(=O)[C@H]1[C@@H]2C(=O)O[C@@H](c3ccccc3)[C@@H](c3ccccc3)N2[C@@H](c2ccc(OCCOC(=O)[C@H]3C[C@H]4C(=O)N[C@@H](CCCCN(C)C)C(=O)N4[C@H]3c3ccc(O)cc3)cc2)[C@]12C(=O)Nc1ccc(I)cc12", "relative growth": 1.01},
      {"smiles": "C[C@@H](O)C#Cc1ccc2c(c1)O[C@H](CN(C)C(=O)Cc1ccccn1)[C@@H](C)CN([C@@H](C)CO)S2(=O)=O", "relative growth": 1.13},
      {"smiles": "Cc1ccc(C(C)C)cc2c(C)ccc1-2", "relative growth": 1.35},
      {"smiles": "CCCNC(=O)N[C@H]1C=C[C@H](CC(=O)N2CCN(C)CC2)O[C@H]1CO", "relative growth": 1.02},
      {"smiles": "Cc1ccc(C(N)=S)c(=O)[nH]1", "relative growth": 1.15},
      {"smiles": "NC(=O)c1ncn([C@@H]2O[C@H](CO)[C@@H](O)[C@H]2O)c1O", "relative growth": 0.926},
      {"smiles": "c1ccc(C2C3=C(CCCC3)SC3=C2CCCC3)cc1", "relative growth": 0.974},
      {"smiles": "C[C@H](CO)N1C[C@H](C)[C@H](CN(C)S(=O)(=O)c2ccc(F)cc2)Oc2ncc(Br)cc2C1=O", "relative growth": 1.08},
      {"smiles": "O=c1[nH]snc1N1CCCCC1", "relative growth": 1.17},
      {"smiles": "O=C(C[C@H]1C=C[C@H](NC(=O)CN2CCOCC2)[C@H](CO)O1)NCc1cccc(F)c1", "relative growth": 1.05},
      {"smiles": "CO[C@@H](CN(C)C(=O)Nc1ccc(C(F)(F)F)cc1)[C@H](C)CN(Cc1ccccc1Cl)[C@H](C)CO", "relative growth": 0.749},
      {"smiles": "CC(=O)Nc1c(I)c(NC(C)=O)c(I)c(C(=O)O)c1I", "relative growth": 0.911},
      {"smiles": "Nc1nncn1C(=O)c1ccccc1F", "relative growth": 0.965},
      {"smiles": "Cn1cnc(S(=O)(=O)N[C@@H]2C=C[C@@H](CC(=O)Nc3ccccc3)O[C@H]2CO)c1", "relative growth": 1.02},
      {"smiles": "CCc1cc(C(N)=S)ccn1", "relative growth": 1.21},
      {"smiles": "COc1ccc(COC[C@]23N=C4SCC(=O)N4[C@H](c4ccccc4O2)[C@H]3COC(=O)NCCCCCC(=O)NO)cc1", "relative growth": 1.1},
      {"smiles": "C/C(=C\\CC[C@@H](C)[C@H]1C[C@@H](O)[C@@]2(C)[C@H]3CC[C@H]4C(C)(C)[C@@H](O[C@@H]5O[C@@H](CO[C@H]6OC[C@@H](O)[C@@H](O)[C@@H]6O)[C@@H](O)[C@@H](O)[C@@H]5O)CC[C@@]45C[C@@]35C[C@@H](O)[C@]12C)C(=O)O[C@H]1O[C@@H](CO)[C@@H](O)[C@@H](O)[C@@H]1O", "relative growth": 1.11},
      {"smiles": "CC(=O)Nc1ccc(S(=O)(=O)Nc2ccc([N+](=O)[O-])cc2)cc1", "relative growth": 1.16},
      {"smiles": "Cc1cccc(S(=O)(=O)N2C[C@@H](O)COC[C@@H]3O[C@@H](CC(=O)NCCCN4CCOCC4)CC[C@H]32)c1", "relative growth": 1.14},
      {"smiles": "O=C1OCc2cc(-n3cnnn3)ccc21", "relative growth": 0.874},
      {"smiles": "CN1CCCN=C1/C=C/c1cccs1.O=C(O)c1cc2ccccc2c(Cc2c(O)c(C(=O)O)cc3ccccc23)c1O", "relative growth": 0.888},
      {"smiles": "C[C@H]1CN([C@@H](C)CO)C(=O)c2cc(Br)cnc2O[C@H]1CN(C)S(=O)(=O)c1ccc(F)cc1", "relative growth": 0.992},
      {"smiles": "CN(C)CC(=O)N[C@@H]1CC[C@H](CCNC(=O)C2CCC2)O[C@H]1CO", "relative growth": 1.04},
      {"smiles": "CN(C)C(=O)C[C@H]1C=C[C@H](NC(=O)C2CC2)[C@H](CO)O1", "relative growth": 0.876},
      {"smiles": "C=CC[C@@H](CC(=O)N(CCO)Cc1ccccc1)C(=O)NC[C@@H](OC(=O)[C@@H](CC=C)Cc1ccc(F)cc1)c1ccccc1", "relative growth": 1.32},
      {"smiles": "Cc1ccc(S(=O)(=O)N(C)C[C@@H]2Oc3cc(Br)ccc3S(=O)(=O)N([C@@H](C)CO)C[C@@H]2C)cc1", "relative growth": 0.954},
      {"smiles": "COc1nn(C)cc1-c1n[nH]c(=S)n1C", "relative growth": 0.979},
      {"smiles": "CO[C@H]1CN(C)C(=O)c2ccc(NS(C)(=O)=O)cc2OC[C@@H](C)N(C(=O)C2CCCCC2)C[C@@H]1C", "relative growth": 1.09},
      {"smiles": "N[C@@H](CO)c1cccc(Br)c1", "relative growth": 1.04},
      {"smiles": "C[N+](C)(C)CCOP(=O)([O-])OP(=O)(O)OC[C@H]1OC(n2ccc(N)nc2=O)[C@H](O)[C@@H]1O", "note": "(some centres not stated)", "relative growth": 0.977},
      {"smiles": "O=C1NC(=O)/C(=C\\c2ccccc2)N1", "relative growth": 1.07},
      {"smiles": "O=C1O[C@H](c2ccccc2)[C@H](c2ccccc2)N2[C@H]1[C@@H](C(=O)Nc1nc3ccccc3s1)[C@]1(C(=O)Nc3ccc(C#CC4(O)CCCCCC4)cc31)[C@H]2c1ccccc1OCCO", "relative growth": 1.11},
      {"smiles": "O=C(C[C@H]1C[C@@H]2c3cc(NC(=O)Nc4ccccc4F)ccc3O[C@@H]2[C@@H](CO)O1)NCc1ccc(Oc2ccccc2)cc1", "relative growth": 1.21},
      {"smiles": "C[C@@H]1CCCCO[C@H](CN(C)Cc2ccc3c(c2)OCO3)[C@@H](C)CN([C@@H](C)CO)C(=O)c2cc(NS(=O)(=O)c3cccs3)ccc2O1", "relative growth": 0.998},
      {"smiles": "O=C(C[C@@H]1CC[C@H](NC(=O)CN2CCOCC2)[C@@H](CO)O1)NC1CCC1", "relative growth": 1.31},
      {"smiles": "CC[C@@H](C)NC(=O)Cn1cnc2c1c(=O)n(C)c(=O)n2C", "relative growth": 1.09},
      {"smiles": "Cn1c(-c2ccccc2)c[nH]c1=S", "relative growth": 1.03}
    ]}
  ]
}
